# From patent US5980913A, “Peptides having immunomodulatory activity” (Biochem Pharma, Inc., priority 1994, dated 1999)
# System: NK cells
# Test: Functional in vivo/ex vivo NK cell assay, spleen cells, effector:target ratio 100:1
# Design: species or system mice
# Details: IL-2 group
# Method: C57BL.backslash.6 mice are treated with 0, 50, 100, 200, and 300 mg/kg of drug (in saline) for 4 consecutive days. Blood is taken by cardiac puncture on day 5, and the lymphocytes are isolated from spleen in the following manner:
# The spleen is aseptically removed and mashed by pressing against a steel strainer with a rubber plunger. The cell suspension is separated from the clumps by letting them settle at the bottom of the tube. The cell suspension is then separated on a Lymphocyte M layer and the interface is recovered and resuspended in media.
# Important in immunosurveillance, NK cells are capable of lysing tumors, virus-infected or embryo-derived cells in vitro spontaneously without prior sensitization. Immunomodulators are evaluated using murine splenocytes and human peripheral blood mononuclear leukocytes.
# Spleen cells were used to test for NK activity at a effector:target ratio of 100:1.
substance,measurement,setting,value
"IL-2: IL-2, reference set to 100% in the CTL assay and comparison group in the NK cell assay","NK cell assay, % response of IL-2",,100.00%
same,"NK cell assay, Average",,5.22
same,"NK cell assay, % response of CTL",CTL = control,233.04%
